Binding of CDR-mutated scFvs to a peptide of the spike HR2 region

The measurements come from Engelhart et al. 2022 (doi:10.1038/s41597-022-01779-4) through the FLAb antibody collection.

The target is the same throughout: PDVDLGDISGINAS, from the HR2 region of SARS-CoV-2 spike.

The variants keep the heavy chain, the linker and the frameworks of Ab-95 (scFv order VH, a 15-residue (Gly4Ser)3 linker, VL).
VH: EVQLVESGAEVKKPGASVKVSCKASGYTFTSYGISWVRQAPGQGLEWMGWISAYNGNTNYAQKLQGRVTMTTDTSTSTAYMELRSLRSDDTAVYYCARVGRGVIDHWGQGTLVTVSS
VL: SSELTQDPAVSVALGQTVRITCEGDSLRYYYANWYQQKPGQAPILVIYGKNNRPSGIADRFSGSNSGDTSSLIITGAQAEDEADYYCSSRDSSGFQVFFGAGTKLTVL

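AAYL52 was designed without a model: most single CDR substitutions and a random sample of double and triple ones. In AlphaSeq, yeast of one mating type display the scFv and yeast of the other type display the target. After mating in shaken culture at 30 °C for 16 h, diploids were selected and their barcode pairs sequenced. Read counts were normalised to the haploid input and turned into Kd by a linear fit to BCL2-family pairs of known affinity, for each replicate. The assay was run in three technical replicates.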

Each variant is given by its three light chain CDRs, as the data file delimits them; those of the parent are EGDSLRYYYAN, GKNNRPS, SSRDSSGFQVF.
Values are log10 of the apparent Kd in nM; lower means stronger binding.
The mean shown is taken over the replicates in which the pair was detected.
"nd" marks a missing value. The strain was present, yet no cells mated with the target were sequenced in that replicate, which points to weak or no binding.
Parent in this assay: reference entry 2.31, copy in this library 2.25.
Empty control strains, which show no peptide, gave a signal in 28% of pairings with library AAYL52; the median was 3.91 and 95% of these signals were weaker than 2.90. No background was subtracted. The control count says in how many pairings with the empty strains this scFv gave a signal, with their mean in brackets.

CDR-L1,CDR-L2,CDR-L3,"replicates, log10 nM","mean, log10 nM",empty controls
EGDSSRYYYAN,GKNNRPS,SSRDSSGFQVF,2.69 / 2.52 / 3.25,2.82,0 of 9
EGDSLRYYYAN,GKNNQPS,RSRDSLGFQVF,3.30 / 5.73 / nd,4.52,5 of 9 (3.98)
EGDSLRYYYAN,GKNNRPS,SSYVSSGFQVT,2.79 / 2.48 / 3.07,2.78,1 of 9 (4.72)
EGDSLRYYYAN,GKNNYPS,SSRDISGFQQF,nd / nd / nd,nd,0 of 9
EGDSNRYYYAN,GKNERPS,SSRDSSGQQVF,2.58 / 2.00 / 1.77,2.12,3 of 9 (4.78)
GGDSLRCYYAN,YKNNRPS,SSRDSSGFQVF,nd / nd / nd,nd,1 of 9 (3.00)
EGKSLRYYYAN,QKNNRPA,SSRDSSGFQVF,2.63 / 3.10 / 3.71,3.15,2 of 9 (3.27)
EGDSLRYYYAN,GRNNRCS,SSRDSMGFQVF,5.94 / 3.62 / 4.21,4.59,6 of 9 (3.92)
EGDVLRYYCAN,GKNNRPS,SSRDSSPFQVF,4.83 / nd / 5.02,4.93,0 of 9
EGDSLRYYYAN,GKNNDYA,SSRDSSGFQVF,3.11 / 4.10 / 3.00,3.40,3 of 9 (4.27)
HGDSLRYYYAN,GKNNRYS,SRRDSSGFQVF,3.43 / nd / nd,3.43,2 of 9 (4.41)
EGDSLRYYTAN,GKNNRPS,SSRDSSGFGVF,3.36 / 2.90 / 3.25,3.17,2 of 9 (3.43)
EGDSLRYYYAN,GENNRPS,SSDDSSGFQWF,3.95 / 3.42 / nd,3.68,0 of 9
TGDSLRYYYAN,GGNNRPS,SSRDSSGFWVF,2.20 / 2.28 / 2.39,2.29,1 of 9 (3.95)
EGDTLRYYYAN,GKNNEPS,SSRDSSGFQVF,4.13 / 3.65 / 4.59,4.13,3 of 9 (4.64)
EGDSLAYYYMN,GKNNRPS,SCRDSSGFQVF,2.60 / 2.59 / 2.04,2.41,6 of 9 (4.06)
EHDSLRYKYAN,GKNNRPS,RSRDSSGFQVF,3.26 / 3.17 / 3.49,3.30,4 of 9 (3.53)
EGDRLRYYYAW,GKNNRPS,SSRDSGGFQVF,3.82 / 4.05 / nd,3.93,4 of 9 (4.14)
EADSLRYYYAN,GKNNRPS,SSRDPSGRQVF,2.05 / 2.42 / 2.02,2.16,2 of 9 (4.27)
EGDSLRYYYAN,GKNNRPS,SSRHSEGFAVF,2.93 / 2.28 / 1.86,2.36,4 of 9 (3.99)
EGDSLRYYYAD,GKQNRPS,SSRDSWGFQVF,nd / nd / nd,nd,2 of 9 (4.43)
EGDSLRYYYAN,HKNTRPS,SSRDSSGFQYF,nd / 2.31 / 2.62,2.46,2 of 9 (3.86)
WGDSLRYYYAN,GKNNRPS,SSRDSSGVFVF,3.18 / nd / nd,3.18,3 of 9 (4.17)
EGDSLRYYYAN,GKNNRPS,TTRDRSGFQVF,3.31 / nd / 2.89,3.10,1 of 9 (3.67)
EGDSLRYYYAN,GKNNRPS,SSRDSSGFQPN,4.55 / 3.82 / 3.56,3.98,2 of 9 (4.06)
EGISLSYYYAN,GKNNRPC,SSRDSSGFQVF,5.66 / 3.77 / 2.45,3.96,2 of 9 (4.93)
EGDSLRYYYAN,GKNNRYS,PSRESSGFQVF,nd / nd / nd,nd,2 of 9 (3.71)
EGDSLRYYYAS,GKNRRPS,SSRDSHGFQVF,4.74 / 4.97 / 3.93,4.55,6 of 9 (4.02)
EYDSLRYYYAN,GKNNRPS,SSRWSSGFQVQ,nd / nd / nd,nd,3 of 9 (3.58)
EGDSLRYLSAN,GKNNRPS,SSRDSSGFQHF,1.97 / 2.15 / 1.60,1.91,6 of 9 (4.04)
EGDSMRYYAAN,GKNNRPS,SSRDSSGHQVF,2.64 / 3.14 / 2.40,2.73,2 of 9 (4.58)
EGDSPRYYYAN,GKNNRPS,SSRDISGFRVF,3.63 / 3.19 / 4.54,3.79,5 of 9 (4.38)

A selection of 4 entries from above:

CDR-L1,CDR-L2,CDR-L3,"replicates, log10 nM","mean, log10 nM",empty controls
EGDTLRYYYAN,GKNNEPS,SSRDSSGFQVF,4.13 / 3.65 / 4.59,4.13,3 of 9 (4.64)
EADSLRYYYAN,GKNNRPS,SSRDPSGRQVF,2.05 / 2.42 / 2.02,2.16,2 of 9 (4.27)
EGDSLRYYYAN,GRNNRCS,SSRDSMGFQVF,5.94 / 3.62 / 4.21,4.59,6 of 9 (3.92)
EGISLSYYYAN,GKNNRPC,SSRDSSGFQVF,5.66 / 3.77 / 2.45,3.96,2 of 9 (4.93)